The target of this test is nLuc-RIPK1 (Homo sapiens, UniProt Q13546). Briefly: NanoBRET-based in-cell RIPK1 target engagement assay. Particulars: read-out: Kd between the tracer and RIPK1; tracer titrated in HEK293T cells expressing nLuc-RIPK1. How it is done: Fig. 2 LD4172, a RIPK1 PROTAC, induces potent and highly specific degradation of RIPK1 in a panel of cell lines. A Chemical structures of RIPK1 PROTAC LD4172 and its negative control, LD4172-NC. […] B Quantification of RIPK1 levels in Jurkat and B16F10 cells treated with various concentrations of LD4172 for 24 h, analyzed by Western blot. Results are representative of three independent experiments. Source data are provided as a Source Data file. C The DC50 and Dmax values of LD4172 were determined in various human and mouse cell lines. The screening of LD4172 across different cell types was conducted in a single experiment. DC50 represents the concentration at which 50% of RIPK1 is degraded, while Dmax indicates the maximum level of degradation achieved. […] E Quantification of RIPK1 degradation and resynthesis from (D). […] G Time-resolved fluorescence resonance energy transfer (TR-FRET) biochemical binding assay for RIPK1. […] Graph bars represent mean ± SD, and statistical significance was determined using a two-tailed unpaired t-test with P values indicated. […]
To elucidate the formation of a binary complex during RIPK1 degradation, we developed a competitive Nano-Bioluminescence Resonance Energy transfer (NanoBRET)-based target engagement (TE) assay to quantify the binding between RIPK1 and LD4172 in cells[14]–[16]. […]

Protein sequences, listed by entry. Tags and fused reporters are not part of them.
UniProt Q13546, whole entry: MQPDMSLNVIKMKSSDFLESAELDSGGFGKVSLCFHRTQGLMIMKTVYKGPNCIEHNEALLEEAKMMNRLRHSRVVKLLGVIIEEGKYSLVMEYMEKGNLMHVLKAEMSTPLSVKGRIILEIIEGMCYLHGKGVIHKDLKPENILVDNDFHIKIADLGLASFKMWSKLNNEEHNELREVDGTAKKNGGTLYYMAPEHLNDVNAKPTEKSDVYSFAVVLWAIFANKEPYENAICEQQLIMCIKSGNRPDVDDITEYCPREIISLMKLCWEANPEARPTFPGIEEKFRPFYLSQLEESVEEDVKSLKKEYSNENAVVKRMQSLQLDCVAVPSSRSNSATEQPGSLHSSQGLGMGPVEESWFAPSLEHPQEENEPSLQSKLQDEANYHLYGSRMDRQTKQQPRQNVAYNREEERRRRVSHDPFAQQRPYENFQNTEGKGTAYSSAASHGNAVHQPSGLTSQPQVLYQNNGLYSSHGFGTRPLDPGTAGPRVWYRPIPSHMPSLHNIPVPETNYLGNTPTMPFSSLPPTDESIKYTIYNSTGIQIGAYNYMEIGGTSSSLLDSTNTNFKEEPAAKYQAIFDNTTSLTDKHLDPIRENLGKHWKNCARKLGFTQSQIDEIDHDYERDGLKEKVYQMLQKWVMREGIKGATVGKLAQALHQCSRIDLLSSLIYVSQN

Each structure is given as a SMILES string.

The term Kd denotes the concentration at which binding is half-saturated.

Turning to `Nc1ncnc2c1c(-c1ccc3c(c1)CCN3C(=O)Cc1cccc(OC(F)(F)F)c1)cn2CCCNC(=O)CCc1ccc2n1[B-](F)(F)[N+]1=C(c3ccc[nH]3)C=CC1=C2`, the Kd amounted to 500 nM.

The values are drawn from publication PMC11649918, “Development of a RIPK1 degrader to enhance antitumor immunity” (Nature Communications, 2024).
